Results on one compound are retold here after BindingDB's records for doi:10.1016/j.chembiol.2008.02.015 (University of Dundee, 2008).

Protein sequences, listed by entry. Tags and fused reporters are not part of them. Lines headed by an entry give the natural chain unless they say otherwise; changes in a name come on top.
UniProt Q13231: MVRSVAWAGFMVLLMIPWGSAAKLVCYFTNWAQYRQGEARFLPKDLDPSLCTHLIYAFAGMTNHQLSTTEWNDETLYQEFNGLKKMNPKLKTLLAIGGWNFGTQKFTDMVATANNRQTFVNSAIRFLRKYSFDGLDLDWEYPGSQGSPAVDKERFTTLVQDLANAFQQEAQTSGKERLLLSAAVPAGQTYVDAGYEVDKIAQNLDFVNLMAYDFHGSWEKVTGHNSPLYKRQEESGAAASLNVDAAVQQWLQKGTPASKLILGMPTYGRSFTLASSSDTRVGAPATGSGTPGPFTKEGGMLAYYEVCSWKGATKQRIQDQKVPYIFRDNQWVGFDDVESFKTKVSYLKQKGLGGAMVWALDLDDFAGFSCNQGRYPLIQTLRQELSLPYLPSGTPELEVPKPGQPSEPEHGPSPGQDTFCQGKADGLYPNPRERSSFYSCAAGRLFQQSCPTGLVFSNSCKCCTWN

The target of the assay is Chitotriosidase-1 (Homo sapiens, UniProt Q13231). Nature of the assay: Inhibition Assay. The following applies: pH 5.5.

`CNC(=O)NC(=N)NCCC[C@@H]1NC(=O)[C@@H](C)NC(=O)C[C@@H](C(=O)O)NC(=O)C[C@@H](C(=O)O)NC(=O)[C@H](Cc2ccccc2)N(C)C1=O` [(2R,5S,8S,11S,15S)-8-benzyl-2,7-dimethyl-5-[3-({[(methylcarbamoyl)amino]methanimidoyl}amino)propyl]-3,6,9,13,17-pentaoxo-1,4,7,10,14-pentaazacycloheptadecane-11,15-dicarboxylic acid] showed a concentration for half-maximal inhibition (IC50) of 4.5 µM.
